ChEMBL document CHEMBL1177672, “Discovery of orally available spirodiketopiperazine-based CCR5 antagonists” (Bioorg Med Chem, 2010)

Amino acid sequences for entries named in this document (tags omitted).
UniProt P51681, whole entry: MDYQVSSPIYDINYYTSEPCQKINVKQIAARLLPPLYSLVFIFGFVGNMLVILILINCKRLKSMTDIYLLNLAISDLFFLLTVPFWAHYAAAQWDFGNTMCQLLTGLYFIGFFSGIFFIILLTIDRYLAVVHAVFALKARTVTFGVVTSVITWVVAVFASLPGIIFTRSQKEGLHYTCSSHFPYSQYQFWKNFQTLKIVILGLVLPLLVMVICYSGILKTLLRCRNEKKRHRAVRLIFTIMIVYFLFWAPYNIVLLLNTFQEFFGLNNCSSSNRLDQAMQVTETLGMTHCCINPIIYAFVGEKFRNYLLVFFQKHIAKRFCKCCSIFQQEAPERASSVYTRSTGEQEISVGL

Biological target: C-C chemokine receptor type 5 (Homo sapiens, UniProt P51681)
Experiment: Antagonist activity at human CCR5 receptor expressed in CHO cells assessed as inhibition of MIP-1-alpha-stmulated calcium mobilization
Assay type: functional, cell-based

## CCCCN1C(=O)[C@H](CC2CCCCC2)NC(=O)C12CCN(Cc1ccc(Oc3ccc(C(=O)O)cc3)cc1)CC2.Cl
  IC50: 13 nM
